Test results from patent US6525022B1, “Receptor specific atrial natriuretic peptides” (Genentech, Inc., priority 1993, dated 2003).

Molecular target: T1, human natriuretic peptide receptor-A (human), P16066
T1 chain: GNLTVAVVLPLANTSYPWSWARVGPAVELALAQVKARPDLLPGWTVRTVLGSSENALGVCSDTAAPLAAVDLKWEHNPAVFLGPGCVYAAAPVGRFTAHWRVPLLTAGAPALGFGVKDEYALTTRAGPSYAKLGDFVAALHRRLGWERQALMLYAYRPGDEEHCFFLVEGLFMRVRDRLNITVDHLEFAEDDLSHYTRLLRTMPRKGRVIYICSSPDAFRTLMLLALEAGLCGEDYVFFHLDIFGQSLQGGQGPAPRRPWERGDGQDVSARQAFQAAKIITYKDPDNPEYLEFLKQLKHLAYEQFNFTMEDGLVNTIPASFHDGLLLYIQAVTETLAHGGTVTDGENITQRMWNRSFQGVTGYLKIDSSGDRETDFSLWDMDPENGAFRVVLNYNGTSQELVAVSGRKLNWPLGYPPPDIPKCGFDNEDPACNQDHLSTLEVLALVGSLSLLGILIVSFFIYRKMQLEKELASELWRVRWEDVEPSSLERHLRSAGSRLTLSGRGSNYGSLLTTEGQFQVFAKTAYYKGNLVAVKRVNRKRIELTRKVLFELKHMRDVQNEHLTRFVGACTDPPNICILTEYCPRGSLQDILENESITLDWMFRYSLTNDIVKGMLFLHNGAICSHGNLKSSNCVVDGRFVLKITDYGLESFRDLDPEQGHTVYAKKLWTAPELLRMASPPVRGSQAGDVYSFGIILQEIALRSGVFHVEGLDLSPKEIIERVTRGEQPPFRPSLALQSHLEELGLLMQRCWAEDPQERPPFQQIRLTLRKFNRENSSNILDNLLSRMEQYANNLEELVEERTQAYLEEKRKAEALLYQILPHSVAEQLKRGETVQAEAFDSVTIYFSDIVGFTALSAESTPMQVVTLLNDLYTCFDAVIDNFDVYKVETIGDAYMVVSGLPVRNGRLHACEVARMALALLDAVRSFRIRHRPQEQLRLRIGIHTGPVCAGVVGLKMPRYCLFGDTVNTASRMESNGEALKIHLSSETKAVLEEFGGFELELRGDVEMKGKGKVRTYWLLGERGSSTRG
Assay: competition binding vs 125I-rat ANP, membranes
Settings: chains peptide; modification not given

B1: ANF 27 (peptide)
chain: SLRRSSCFTGSIDRIRAQSGLGCNSFRY
  IC50: 0.118 nM
